Protein sequences, listed by entry. Tags and fused reporters are not part of them.
UniProt P18090, whole entry: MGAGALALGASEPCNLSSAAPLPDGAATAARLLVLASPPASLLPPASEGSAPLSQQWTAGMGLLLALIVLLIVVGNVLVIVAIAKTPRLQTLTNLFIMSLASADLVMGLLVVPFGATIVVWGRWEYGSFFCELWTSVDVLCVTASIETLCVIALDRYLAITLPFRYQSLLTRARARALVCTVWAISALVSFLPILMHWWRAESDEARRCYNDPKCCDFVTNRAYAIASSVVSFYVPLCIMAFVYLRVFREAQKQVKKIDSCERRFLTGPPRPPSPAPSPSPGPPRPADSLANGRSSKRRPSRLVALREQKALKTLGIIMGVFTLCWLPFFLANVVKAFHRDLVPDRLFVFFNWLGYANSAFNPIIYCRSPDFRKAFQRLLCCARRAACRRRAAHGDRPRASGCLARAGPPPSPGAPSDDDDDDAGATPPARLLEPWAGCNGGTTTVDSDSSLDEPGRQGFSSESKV

In US9492405B2 (dated 2016):

What was measured:
β2-AR = β2-AR (Homo sapiens (Human), UniProt P07550); details: β2-AR binding data used for CoMFA
β1-AR = β1-AR (Rattus norvegicus (Rat), UniProt P18090); details: read-out: Ki β1

Row | Compound | pKd Measured (β2-AR) | Ki (β1-AR) [µM]
1 | O=C(O)/C=C/C(=O)O.Oc1cc(O)cc([C@@H](O)CNCCc2ccccc2)c1 [(R)-7, (R)-(−)-5-(1-Hydroxy-2-phenethylaminoethyl)-1,3-benzenediol fumarate] | 4.98 | 
2 | O=C(O)/C=C/C(=O)O.Oc1cc(O)cc([C@H](O)CNCCc2ccccc2)c1 [(S)-7, (S)-(−)-5-(1-hydroxy-2-phenethylaminoethyl)-1,3-benzenediol fumarate] | 4.69 | 
3 | C[C@@H](Cc1cccc2ccccc12)NC[C@@H](O)c1cc(O)cc(O)c1 [(S,S)-5, (S,S)-(+)-5-{1-hydroxy-2-[1-methyl-2-(1-naphthyl)ethylamino]ethyl}-1,3-benzenediol fumarate] |  | > 100

Structures can show the parent of a compound that is named as a salt.
